Where two headings read alike, the source gives them in different places.
Target: c-Met (Homo sapiens, UniProt P08581)
Test: Ki determination for the inhibition of c-Met kinase activity (standard coupled enzyme system)
[1] = read-out: c-Met Ki, 200 μM ATP, 80 nM c-Met, 30° C.

Protein sequences, listed by entry. Tags and fused reporters are not part of them. Residues count along the entry.
UniProt P08581, 25-1390 limits assumed: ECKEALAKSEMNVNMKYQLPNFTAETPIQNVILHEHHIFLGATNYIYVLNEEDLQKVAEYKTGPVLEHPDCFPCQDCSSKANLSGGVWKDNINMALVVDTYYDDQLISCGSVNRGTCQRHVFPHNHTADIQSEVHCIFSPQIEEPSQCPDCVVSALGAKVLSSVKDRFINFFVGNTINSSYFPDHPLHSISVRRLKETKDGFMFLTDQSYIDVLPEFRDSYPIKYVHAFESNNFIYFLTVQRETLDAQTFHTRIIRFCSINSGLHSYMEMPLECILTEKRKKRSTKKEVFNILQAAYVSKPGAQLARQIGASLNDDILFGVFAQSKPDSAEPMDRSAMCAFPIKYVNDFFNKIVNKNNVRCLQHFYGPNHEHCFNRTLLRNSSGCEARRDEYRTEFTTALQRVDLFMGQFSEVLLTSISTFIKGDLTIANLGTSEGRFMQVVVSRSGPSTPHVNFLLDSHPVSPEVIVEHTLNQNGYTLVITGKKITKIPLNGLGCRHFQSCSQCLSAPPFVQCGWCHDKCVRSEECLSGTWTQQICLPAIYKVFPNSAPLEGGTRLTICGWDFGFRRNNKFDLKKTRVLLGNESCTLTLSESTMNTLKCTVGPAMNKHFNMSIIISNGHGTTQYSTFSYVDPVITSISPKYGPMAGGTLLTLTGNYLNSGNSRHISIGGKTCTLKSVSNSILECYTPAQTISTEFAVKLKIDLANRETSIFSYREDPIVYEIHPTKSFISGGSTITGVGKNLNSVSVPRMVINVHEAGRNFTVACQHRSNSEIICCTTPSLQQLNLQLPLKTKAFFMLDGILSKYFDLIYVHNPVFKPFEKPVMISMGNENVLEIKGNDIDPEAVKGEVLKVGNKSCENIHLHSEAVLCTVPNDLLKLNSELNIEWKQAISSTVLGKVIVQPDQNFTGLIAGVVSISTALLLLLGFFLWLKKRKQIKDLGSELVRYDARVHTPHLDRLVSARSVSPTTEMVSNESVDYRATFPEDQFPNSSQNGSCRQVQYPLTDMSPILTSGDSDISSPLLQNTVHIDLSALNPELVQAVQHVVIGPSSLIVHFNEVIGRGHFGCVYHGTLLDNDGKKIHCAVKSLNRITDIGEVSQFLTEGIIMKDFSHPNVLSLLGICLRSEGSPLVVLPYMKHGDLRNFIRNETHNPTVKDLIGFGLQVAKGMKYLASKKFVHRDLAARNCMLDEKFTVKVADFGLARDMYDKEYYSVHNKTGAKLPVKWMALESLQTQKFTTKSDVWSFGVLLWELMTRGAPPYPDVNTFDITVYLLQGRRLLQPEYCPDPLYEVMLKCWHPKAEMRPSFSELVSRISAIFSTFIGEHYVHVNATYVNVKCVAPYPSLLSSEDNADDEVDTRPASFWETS

Row | Ki [1] | Ki (read-out: c-Met Ki, 200 μM ATP, 10 μM polyGluTyr, 80 nM c-Met, 30° C.) | SMILES
1 | < 100 nM |  | CC(c1ccc(O)cc1)c1nnc2n1N=C(c1cccs1)CS2 (stereo not shown)
2 | < 100 nM |  | C[C@@H](c1ccc(O)cc1)c1nnc2ccc(Nc3cc(Cl)ccc3OCCO)nn12
3 | < 100 nM |  | OCCOc1ccc(Cl)cc1Nc1ccc2nnc(Cc3ccc(O)cc3)n2n1
4 |  | 100 to 2000 nM | Oc1ccc(Cc2nnc3sc(Nc4ccccc4)nn23)cc1F
